Experimental data reported in patent US10092613B2 (NATUREX, S.A., priority 2008, dated 2018).

Test: Urinary excretion of CGA and metabolites after 400 mg green coffee extract, ten volunteers
Assay type: in vivo, human
Conditions: subject 6, 0-8 h after consumption
Description: In a further phase of the study, ten non-smoker volunteers (22-55 y), five male and five female, were recruited. Subjects were instructed to avoid consumption of phenolic-containing foods during the 48 h prior to the study. They were asked to eat only animal foods, refined cereal foods and artificial beverages. On the day of the study, after 10-12 h overnight fasting, an I.V. catheter was inserted into the antecubital vein and a baseline heparinized blood sample was obtained. […] Blood samples were collected into heparin-containing tubes. Baseline blood aliquots were used to determine hematocrit and hemoglobin levels by standard methods. Plasma samples were obtained by centrifugation of the blood samples immediately after being drawn. Urine samples were also collected at baseline interval (minus 2-0 h) and at intervals of 0-2 h; 2-4 h; 4-6 h and 6-8 h after coffee consumption into appropriate plastic containers. Total urine volume was measured for each collection period. Plasma and urine aliquots for determination of CGA were acidified with HCl and kept frozen in liquid nitrogen until analyses. Urine aliquots for determination of creatinine were acidified with HCl and kept at −20° C. until analyses.
Results of CGA and phenolic acids in urine were normalized by creatinine excretion.

- total urinary excretion: 115.87 µmol
SMILES: O=C(O)c1cc(O)c(O)c(O)c1 [Gallic Acid]
